Measurements taken from ChEMBL document CHEMBL1132993, “Novel benzofuran and benzothiophene biphenyls as inhibitors of protein tyrosine phosphatase 1B with antihyperglycemic properties” (J Med Chem, 2000).

Biological target: T1, Tyrosine-protein phosphatase non-receptor type 1 (Homo sapiens, UniProt P18031)
T1 sequence (P18031 whole entry): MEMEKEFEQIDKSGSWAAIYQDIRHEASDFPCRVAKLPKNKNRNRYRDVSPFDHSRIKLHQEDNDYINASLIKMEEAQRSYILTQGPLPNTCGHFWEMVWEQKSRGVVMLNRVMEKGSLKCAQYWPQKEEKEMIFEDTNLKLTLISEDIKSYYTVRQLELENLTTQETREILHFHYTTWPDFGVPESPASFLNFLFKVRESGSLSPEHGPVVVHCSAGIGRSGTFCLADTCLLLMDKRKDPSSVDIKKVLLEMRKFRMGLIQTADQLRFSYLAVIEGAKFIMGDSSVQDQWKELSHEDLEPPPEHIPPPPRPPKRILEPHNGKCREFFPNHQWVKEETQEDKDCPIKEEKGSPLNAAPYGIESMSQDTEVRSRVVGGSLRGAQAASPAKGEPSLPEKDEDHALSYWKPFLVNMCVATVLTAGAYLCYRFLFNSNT
Test: In vitro inhibitory activity against human recombinant protein tyrosine phosphatase 1b (PTP1B)
Procedure, shortened: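 Recombinant human PTP1B, diluted in pH 7.4 Tris-HCl/EDTA/β-mercaptoethanol buffer, preincubated 10 min at 37 °C with compound in HEPES pH 7.4. Substrate was the insulin receptor 1142-1153 dodecapeptide phosphorylated at Y1146/1150/1151, 50 µM final. Reaction ran 30 min at 37 °C. Released phosphate was read by malachite green-ammonium molybdate at 650 nm, in quadruplicate. IC50 came from four-parameter logistic regression.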

Row | IC50 [nM] | SMILES
1 | 680 | O=C(c1ccccc1)c1oc2ccccc2c1-c1ccc(-c2ccc(O[C@H](Cc3ccccc3)C(=O)O)cc2)cc1
2 | 77 | COc1ccc(Cc2sc3ccccc3c2-c2ccc(-c3ccc(O[C@H](Cc4ccccc4)C(=O)O)cc3)cc2)cc1

Row | SMILES | IC50 [nM]
3 | O=C(O)[C@@H](Cc1ccccc1)Oc1ccc(-c2ccc(-c3c(Cc4ccccc4)sc4ccccc34)cc2)cc1 | 95
